Measured values reported in patent US9738720B2, “Monoclonal antibodies against HER2 epitope and methods of use thereof” (Mersana Therapeutics, Inc., priority 2014, dated 2017).

Assays:
MDA-MB-453 cells = experiment: Cytotoxicity assay (CellTiter-Glo), MDA-MB-453; assay type: cell-based; settings: 72 hours or 6 days
MDA-MB-361 cells = experiment: Cytotoxicity assay (CellTiter-Glo), MDA-MB-361; assay type: cell-based, human; settings: 72 hours or 6 days
Protocol: (§1) HER2-(EG2-MI-(10 kDa PHF-BA-(AF-HPA-Ala))) conjugates were evaluated for their antiproliferation properties in tumor cell lines in vitro using Cell Titer-Glo (Promega Corp). JIMT-1(HER2 medium expressing cells, DSMZ, Braunschweig, Germany, Cat.# ACC589), MDA-MB-361 (HER2 medium expressing human breast cancer cells, ATCC, Cat.# HTB-27), MDA-MB-453 cells (triple negative breast cancer cell line, ATCC, Cat.# HTB-131), were cultured in DMEM media (ATCC, Manassas, Va., Cat.#30-2002) with 10% FBS (Gibco®, Life Technologies, Grand Island, N.Y., Cat.#16140-071). NCI-H522 (non-small cell lung carcinoma cell line, not amplified, ATCC, Cat.# CRL-5810), and NCI-H2170 (non-small cell lung carcinoma cell line, ATCC, Cat.# CRL-5928) cells were cultured in RPMI-1640 medium (ATCC, Cat.#30-2001). […]
(§2) For the cytotoxicity assay, cells were seeded at a density of 3000 cells per well in 96 well plates and allowed to attach during overnight incubation at 37° C. in the presence of 5% CO2. […] Cell survival was measured using CellTiter-Glo® Luminescent Cell Viability Assay (Promega, Madison, Wis.) as described in the kit instructions. Cell viability was normalized to untreated control and expressed as a percentage. The values were plotted and IC50 values calculated with Graphpad Prism software (San Diego, Calif.) using 4 parameter, variable slope, dose response curve fitting algorithm.

NCI-H522 cells = experiment: Cytotoxicity assay (CellTiter-Glo), NCI-H522; assay type: cell-based; settings: 72 hours or 6 days
NCI-N87 cells = experiment: Cytotoxicity assay (CellTiter-Glo), NCI-N87; assay type: cell-based; settings: 72 hours or 6 days
SKOV3 cells = experiment: Cytotoxicity assay (CellTiter-Glo), SKOV3; assay type: cell-based, human; settings: 72 hours or 6 days
Protocol: as §1, §2

NCI-H1581 cells = experiment: Cytotoxicity assay (CellTiter-Glo), NCI-H1581; assay type: cell-based; settings: 72 hours or 6 days
JIMT-1 cells = experiment: Cytotoxicity assay (CellTiter-Glo), JIMT-1; assay type: cell-based; settings: 72 hours or 6 days
BT474 cells = experiment: Cytotoxicity assay (CellTiter-Glo), BT474; assay type: cell-based, human; settings: 72 hours or 6 days
NCI-H460 cells = experiment: Cytotoxicity assay (CellTiter-Glo), NCI-H460; assay type: cell-based, human; settings: 72 hours or 6 days
Protocol: as §1, §2

MDA-MB-175VII cells = experiment: Cytotoxicity assay (CellTiter-Glo), MDA-MB-175VII; assay type: cell-based, human; settings: 72 hours or 6 days
Protocol: (§3) HER2-(EG2-MI-(10 kDa PHF-BA-(AF-HPA-Ala))) conjugates were evaluated for their antiproliferation properties in tumor cell lines in vitro using Cell Titer-Glo (Promega Corp). JIMT-1(HER2 medium expressing cells, DSMZ, Braunschweig, Germany, Cat.# ACC589), MDA-MB-361 (HER2 medium expressing human breast cancer cells, ATCC, Cat.# HTB-27), MDA-MB-453 cells (triple negative breast cancer cell line, ATCC, Cat.# HTB-131), were cultured in DMEM media (ATCC, Manassas, Va., Cat.#30-2002) with 10% FBS (Gibco®, Life Technologies, Grand Island, N.Y., Cat.#16140-071). NCI-H522 (non-small cell lung carcinoma cell line, not amplified, ATCC, Cat.# CRL-5810), and NCI-H2170 (non-small cell lung carcinoma cell line, ATCC, Cat.# CRL-5928) cells were cultured in RPMI-1640 medium (ATCC, Cat.#30-2001). NCI-H1581 (non-small cell lung carcinoma medium expressing cell line, not amplified, ATCC, Cat.# CRL-5878) cells were cultured in DMEM:F12 medium (ATCC, Cat.#30-2006). SNU5 (gastric carcinoma cell line, not amplified, ATCC, Cat.# CRL-5973) was cultured in Iscove's Modified Dulbecco's Medium (Invitrogen Life Technologies, Cat.#12440053) with 20% FBS. OVCAR3 (ovarian adenocarcinoma cell line, not amplified, ATCC, Cat.# HTB-161) was cultured in RPMI medium with 20% FBS. […] CAMA-1 (human breast cancer cell line, not amplified, ATCC, Cat.# HTB-21), was cultured in 90% ATCC-formulated Eagle's Minimum Essential Medium. ZR75-1 (human breast cancer cell line, not amplified, ATCC, Cat.# CRL-1500), was cultured in RPMI-1640 Medium. […]
as §2

CALU3 cells = experiment: Cytotoxicity assay (CellTiter-Glo), CALU3; assay type: cell-based, human; settings: 72 hours or 6 days
HCC70 cells = experiment: Cytotoxicity assay (CellTiter-Glo), HCC70; assay type: cell-based, human; settings: 72 hours or 6 days
Protocol: as §1, §2

ZR75-1 cells = experiment: Cytotoxicity assay (CellTiter-Glo), ZR75-1; assay type: cell-based, human; settings: 72 hours or 6 days
MDA-MB-231 cells = experiment: Cytotoxicity assay (CellTiter-Glo), MDA-MB-231; assay type: cell-based, human; settings: 72 hours or 6 days
Protocol: as §1, §2

OVCAR3 cells = experiment: Cytotoxicity assay (CellTiter-Glo), OVCAR3; assay type: cell-based; settings: 72 hours or 6 days
Protocol: as §1, §2

CAMA-1 cells = experiment: Cytotoxicity assay (CellTiter-Glo), CAMA-1; assay type: cell-based, human; settings: 72 hours or 6 days
Protocol: as §3, §2

NCI-H1781 cells = experiment: Cytotoxicity assay in a cell line with a mutant HER2 (CellTiter-Glo), NCI-H1781; assay type: cell-based, human; settings: 72 hours
SHP-77 cells = experiment: Cytotoxicity assay (CellTiter-Glo), SHP-77; assay type: cell-based, human; settings: 72 hours or 6 days
NCI-H2122 cells = experiment: Cytotoxicity assay (CellTiter-Glo), NCI-H2122; assay type: cell-based, human; settings: 72 hours or 6 days
Protocol: as §1, §2

SNU5 cells = experiment: Cytotoxicity assay (CellTiter-Glo), SNU5; assay type: cell-based; settings: 72 hours or 6 days
TOV21G cells = experiment: Cytotoxicity assay (CellTiter-Glo), TOV21G; assay type: cell-based, human; settings: 72 hours or 6 days
T47D cells = experiment: Cytotoxicity assay (CellTiter-Glo), T47D; assay type: cell-based, human; settings: 72 hours or 6 days
NCI-H2170 cells = experiment: Cytotoxicity assay (CellTiter-Glo), NCI-H2170; assay type: cell-based; settings: 72 hours or 6 days
MKN45 cells = experiment: Cytotoxicity assay (CellTiter-Glo), MKN45; assay type: cell-based, human; settings: 72 hours or 6 days
A549 cells = experiment: Cytotoxicity assay (CellTiter-Glo), A549; assay type: cell-based, human; settings: 72 hours or 6 days
HCC38 cells = experiment: Cytotoxicity assay (CellTiter-Glo), HCC38; assay type: cell-based, human; settings: 72 hours or 6 days
HCC1187 cells = experiment: Cytotoxicity assay (CellTiter-Glo), HCC1187; assay type: cell-based, human; settings: 72 hours or 6 days
Protocol: as §3, §2

KATOIII cells = experiment: Cytotoxicity assay (CellTiter-Glo), KATOIII; assay type: cell-based, human; settings: 72 hours or 6 days
[1] = molecular target: T1, recombinant human HER2 extracellular domain (Homo sapiens, UniProt P04626); experiment: Antibody affinity by ELISA, human HER2; assay type: binding; settings: Table IIA
T1 construct: either human derived (amino acids 23-652, Acro Biosystems Cat.# HE2-H5225); purchased Acro Biosystems HE2-H5225

[2] = molecular target: recombinant cynomolgus monkey HER2 extracellular domain; experiment: Antibody affinity by ELISA, cynomolgus monkey HER2; assay type: binding; settings: Table IIA

“XMT 1519-(EG2-MI-(10 kDa PHF-BA-(AF-HPA-Ala))) [Example 16D]” showed an IC50 (MDA-MB-453 cells) of 0.04 nM, an IC50 (MDA-MB-361 cells) of 0.02 nM and an IC50 (NCI-H522 cells) of 0.8 nM. It also gave an IC50 (NCI-N87 cells) of 0.03 nM, an IC50 (SKOV3 cells) of 0.6 nM and an IC50 (NCI-H1581 cells) of 5.6 nM. It also gave an IC50 (JIMT-1 cells) of 0.6 nM and an IC50 (BT474 cells) of 0.03 nM.

“XMT 1519-(EG2-MI-(10 kDa PHF-BA-(AF-HPA-Ala))) [Example 16E]” showed an IC50 (NCI-H460 cells) of 20 nM, an IC50 (MDA-MB-175VII cells) of 0.3 nM and an IC50 (CALU3 cells) of 0.15 nM. It also gave an IC50 (HCC70 cells) of 4 nM, an IC50 (ZR75-1 cells) of 2.7 nM and an IC50 (MDA-MB-231 cells) of 6.3 nM. It also gave an IC50 (MDA-MB-453 cells) of 0.04 nM, an IC50 (OVCAR3 cells) of 2.4 nM and an IC50 (CAMA-1 cells) of 0.1 nM. It also gave an IC50 (NCI-H1781 cells) of 0.71 nM, an IC50 (SHP-77 cells) of 22 nM and an IC50 (NCI-H2122 cells) of 2.5 nM. It also gave an IC50 (SNU5 cells) of 3.3 nM, an IC50 (NCI-N87 cells) of 0.08 nM and an IC50 (TOV21G cells) of 8.8 nM. It also gave an IC50 (T47D cells) of 1.2 nM, an IC50 (NCI-H2170 cells) of 0.08 nM and an IC50 (MKN45 cells) of 5.2 nM. For the same substance, the IC50 (A549 cells) was 10.8 nM, the IC50 (HCC38 cells) was 4 nM and the IC50 (HCC1187 cells) was 1.7 nM. For the same substance, the IC50 (BT474 cells) was 0.06 nM and the IC50 (KATOIII cells) was 3.8 nM.

Work on “XMT 1519-(EG2-MI-(10 kDa PHF-BA-(AF-HPA-Ala))) [Example 16H]” yielded a Kd [1] of 0.05 nM and a Kd [2] of 0.05 nM.
